Data taken from PubChem BioAssay AID504734 (The Scripps Research Institute Molecular Screening Center, 2011).
This is a selection; strong and weak results do not stand in their true shares. Some salts and complexes are drawn in separate pieces, as the source files them; their charges need not balance. Active and inactive are the calls of the source.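 How the source made its calls: active means inhibition above the mean over all tested compounds plus 3 SD (cut at about 21% in these data); inactive means the rest.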

Chains of the proteins cited; added tags and fusions are not shown.
UniProt Q9NR96, whole entry: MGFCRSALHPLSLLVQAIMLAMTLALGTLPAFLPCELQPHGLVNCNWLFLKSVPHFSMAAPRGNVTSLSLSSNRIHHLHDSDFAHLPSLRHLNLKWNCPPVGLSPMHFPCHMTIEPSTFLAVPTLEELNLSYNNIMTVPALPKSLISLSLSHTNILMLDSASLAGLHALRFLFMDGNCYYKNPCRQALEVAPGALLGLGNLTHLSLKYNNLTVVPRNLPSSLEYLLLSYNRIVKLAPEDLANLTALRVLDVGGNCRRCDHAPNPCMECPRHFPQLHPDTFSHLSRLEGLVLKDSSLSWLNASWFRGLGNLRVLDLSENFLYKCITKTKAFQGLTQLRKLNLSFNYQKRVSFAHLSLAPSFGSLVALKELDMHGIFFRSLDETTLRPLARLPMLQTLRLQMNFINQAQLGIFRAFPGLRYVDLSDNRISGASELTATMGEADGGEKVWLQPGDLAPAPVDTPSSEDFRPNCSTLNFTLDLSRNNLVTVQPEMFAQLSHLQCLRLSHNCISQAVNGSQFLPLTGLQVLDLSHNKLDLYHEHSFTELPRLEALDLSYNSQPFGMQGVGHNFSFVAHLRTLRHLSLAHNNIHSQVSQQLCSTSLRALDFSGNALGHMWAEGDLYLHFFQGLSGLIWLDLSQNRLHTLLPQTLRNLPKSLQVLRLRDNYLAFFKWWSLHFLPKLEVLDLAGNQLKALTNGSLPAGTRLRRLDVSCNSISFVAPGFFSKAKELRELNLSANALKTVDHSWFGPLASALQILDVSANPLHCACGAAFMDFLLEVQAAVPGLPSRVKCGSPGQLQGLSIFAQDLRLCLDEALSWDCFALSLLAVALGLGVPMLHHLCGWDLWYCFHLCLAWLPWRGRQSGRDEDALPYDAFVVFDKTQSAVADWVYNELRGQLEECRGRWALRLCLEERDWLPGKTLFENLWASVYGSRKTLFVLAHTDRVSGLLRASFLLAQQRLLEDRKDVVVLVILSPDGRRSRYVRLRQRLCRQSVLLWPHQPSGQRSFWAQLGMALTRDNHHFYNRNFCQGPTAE

The molecules below were run against Toll-like receptor 9 (Homo sapiens) + Myeloid differentiation primary response protein MyD88 (Homo sapiens) (UniProt Q9NR96+Q99836) (assay: inhibitors of TLR9-MyD88 association in cells, primary screen, cell-based, CHO, BLA complementation, fluorescence (AID 504734;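 further: 0% = DMSO only wells and 100% = clavulanate BLA inhibitor control wells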)). Details: CHO BLA complementation TLR9-MyD88, CCF4 FRET ratio; at 4.98 µM; hits give high values.

SMILES | inhibition
CCN(CC)CC(O)COC(=O)C(O)(c1ccccc1)C1CCCCC1 (stereo unspecified) | inactive: -1.13%
COc1ccc(OP(C)(=O)Nc2ccc(Br)cc2)cc1 (stereo unspecified) | inactive: -0.22%
CP(=O)(Oc1ccccc1)N1CCOC1=O (stereo unspecified) | inactive: 1.87%
CCc1ccc(OP(C)(=O)Nc2cccnc2)cc1 (stereo unspecified) | inactive: 2.41%
COc1ccccc1OP(C)(=O)Nc1c(C)n(C)n(-c2ccccc2)c1=O (stereo unspecified) | inactive: -1.4%
O=C(OCCCN1CCCC1)C(O)(c1ccccc1)C1CCCCC1 (stereo unspecified) | inactive: 13.8%
CP(=O)(Nc1ccc(Cl)cc1)Oc1ccc(F)cc1 (stereo unspecified) | inactive: -2.09%
CC(C)(C)c1ccc(OP(C)(=O)O)cc1 | inactive: -0.44%
COc1ccccc1OP(C)(=O)Nc1ccccc1Br (stereo unspecified) | inactive: 4.3%
CN(C)C(=O)c1c([N+](=O)[O-])cc([N+](=O)[O-])cc1[N+](=O)[O-] | inactive: 1.85%
CP(=O)(OC12CC3CC(CC(C3)C1)C2)OC12CC3CC(CC(C3)C1)C2 | inactive: -6.93%
CCOC(=O)c1ccc(NP(C)(=O)Oc2ccc(Cl)cc2)cc1 (stereo unspecified) | inactive: 7.47%
O=C1C(O)=C([N+](=O)[O-])C(=O)C(O)=C1[N+](=O)[O-] | inactive: 6.26%
Cc1cc(C)cc(OP(C)(=O)Nc2cccc(C(F)(F)F)c2)c1 (stereo unspecified) | inactive: -3.79%
COc1ccc(OP(C)(=O)Nc2ccccc2Br)cc1 (stereo unspecified) | inactive: 4.16%
COc1ccccc1OP(C)(=O)Nc1ccc(C)c(C)c1 (stereo unspecified) | inactive: 2.86%
CP(=O)(OCCOc1ccccc1)OCCOc1ccccc1 | inactive: -14.7%
CP(=O)(Nc1ccc(Cl)cc1Cl)Oc1ccccc1 (stereo unspecified) | inactive: 4.22%
CCCCCCCCCCCCCCCC1C[N+](C)(C)CCOP(C)(=O)O1 (stereo unspecified) | inactive: -3.42%

SMILES | inhibition
COc1ccccc1OP(C)(=O)Nc1ccc(Br)cc1 (stereo unspecified) | inactive: -4.93%
CN(C)CCOC(=O)C(O)(c1ccccc1)C1CCCC1 (stereo unspecified) | inactive: 7.4%
COc1ccc(OP(C)(=O)Nc2ccccn2)cc1 (stereo unspecified) | inactive: -5.66%
O=[N+]([O-])c1cc([N+](=O)[O-])c(Nc2ccccn2)c([N+](=O)[O-])c1 | inactive: 4.48%
Cc1c(NP(C)(=O)Oc2ccc(C(C)C)cc2)c(=O)n(-c2ccccc2)n1C (stereo unspecified) | inactive: 0.88%
CCc1ccc(OP(C)(=O)O)cc1 | inactive: -2.07%
CP(=O)(Nc1ccccn1)Oc1ccccc1 (stereo unspecified) | inactive: 4.86%
COc1ccccc1OP(C)(=O)Nc1ccc(C)cc1C (stereo unspecified) | inactive: 2.91%
O=[N+]([O-])c1cc([N+](=O)[O-])c(Nc2ccc(Cl)cc2)c([N+](=O)[O-])c1 | inactive: -10.7%
CC(C)c1ccc(OP(C)(=O)Nc2ccc(SC(F)(F)F)cc2)cc1 (stereo unspecified) | inactive: -1.02%
CP(=O)(Nc1ccccc1F)Oc1ccccc1 (stereo unspecified) | inactive: -6.92%
O=C(OCCN1CCN(CCOCc2ccccc2)CC1)C(O)(c1ccccc1)c1ccccc1 | inactive: -12.2%
O=C(OC1CN2CCC1CC2)c1ccc([N+](=O)[O-])cc1 (stereo unspecified) | inactive: -2.66%
COc1ccc2c(c1O)-c1c(O)c(OC)cc3c1[C@H](C2)[N+](C)(C)CC3.O=[N+]([O-])c1cc([N+](=O)[O-])c([O-])c([N+](=O)[O-])c1[O-] | inactive: -1.58%
COc1ccc(OP(C)(=O)Nc2ccc(SC(F)(F)F)cc2)cc1 (stereo unspecified) | inactive: 5.33%
CCOC(=O)c1ccc(NP(C)(=O)Oc2ccc(F)cc2)cc1 (stereo unspecified) | inactive: -4.04%
CCN(CC)CCCOC(=O)C(O)(c1ccccc1)C1CCCCC1 (stereo unspecified) | inactive: -5.84%
Cc1c([N+](=O)[O-])cc([N+](=O)[O-])c(Br)c1[N+](=O)[O-] | inactive: -8.25%
O=[N+]([O-])c1cc([N+](=O)[O-])c(OC2CCCCC2O)c([N+](=O)[O-])c1 (stereo unspecified) | inactive: -0.48%

SMILES | inhibition
CCCCCOc1ccc(NP(C)(=O)Oc2ccc(Cl)cc2Cl)cc1 (stereo unspecified) | inactive: 7.47%
CP(=O)(Nc1ccccc1)Oc1ccc(F)cc1 (stereo unspecified) | inactive: 1.17%
COc1ccc(OP(C)(=O)Nc2cccc(Br)c2)cc1 (stereo unspecified) | inactive: 3.01%
COc1ccc(NP(C)(=O)Oc2ccccc2OC)cc1 (stereo unspecified) | inactive: 1.67%
CN(C)CCOC(=O)C(O)(c1ccccc1)C1CCCCC1 (stereo unspecified) | inactive: -19.7%
Cc1cc(-c2cccc3ccccc23)c(C)cn1.O=[N+]([O-])c1cc([N+](=O)[O-])c(O)c([N+](=O)[O-])c1 | inactive: 0.86%
O=[N+]([O-])c1cc([N+](=O)[O-])c(NCC2CCS(=O)(=O)C2)c([N+](=O)[O-])c1 (stereo unspecified) | inactive: -4.84%
O=[N+]([O-])c1ccc(OP2(=O)COCCO2)cc1 (stereo unspecified) | inactive: 1.69%
Cc1c(C(c2ccc3c(c2)OCO3)c2c(C)n(C)n(-c3ccccc3)c2=O)c(=O)n(-c2ccccc2)n1C.O=[N+]([O-])c1cc([N+](=O)[O-])c(O)c([N+](=O)[O-])c1 | inactive: 2.83%
CP(=O)(Nc1ccc(SC(F)(F)F)cc1)Oc1ccc(F)cc1 (stereo unspecified) | inactive: -3.46%
CCOP(C)(=S)SCC(=O)NC(C)(CC)C(=O)O (stereo unspecified) | inactive: 3.13%
CP(=O)(Nc1ccc2c(c1)OCCO2)Oc1ccccc1 (stereo unspecified) | inactive: -5.82%
Cc1ccccc1NP(C)(=O)Nc1ccccc1C | inactive: 6.75%
O=[N+]([O-])c1cc([N+](=O)[O-])c(-n2nnc3ccccc32)c([N+](=O)[O-])c1 | inactive: -1.88%
O=[N+]([O-])c1cc([N+](=O)[O-])c(-c2cnn(-c3ccccc3)c2)c([N+](=O)[O-])c1 | inactive: -1.1%
Cc1nc2ccc3ccccc3c2s1.O=[N+]([O-])c1cc([N+](=O)[O-])c(O)c([N+](=O)[O-])c1 | inactive: -2.04%
O=[N+]([O-])c1cc([N+](=O)[O-])c(Nc2nnnn2CCO)c([N+](=O)[O-])c1 | inactive: 1.06%
CC1=C2N=C(C=C3N=C(C(C)=C4[N-][C@@](C)([C@@H]5N=C1[C@](C)(CCC(=O)NC[C@@H](C)OP(=O)([O-])O[C@H]1[C@@H](O)[C@@H](n6cnc7cc(C)c(C)cc76)O[C@@H]1CO)[C@H]5CC(N)=O)[C@@](C)(CC(N)=O)[C@@H]4CCC(N)=O)[C@@](C)(CC(N)=O)[C@@H]3CCC(N)=O)C(C)(C)[C@@H]2CCC(N)=O.[C-]#N.[Co+3] | inactive: -8.98%
